In ChEMBL document CHEMBL1152764, “Penicilliols A and B, novel inhibitors specific to mammalian Y-family DNA polymerases” (Bioorg Med Chem, 2009):

System: Oryza sativa
Test: Inhibition of rice DNA polymerase lambda at 100 uM

COC1=C(C(=O)CC(C)O)C(=O)C(C)(/C=C/C=C/C(C)O)O1 (stereo unspecified)
Activity: inactive

Calls of active or inactive are those of the source. No cut-off for these calls is given here.
